Data on four compounds can be found in patent US7935722B2 (Eli Lilly and Company, priority 2005, dated 2011).

Sequences of proteins named here, by UniProt entry; tags and fusion partners are left off.
UniProt P10275, whole entry: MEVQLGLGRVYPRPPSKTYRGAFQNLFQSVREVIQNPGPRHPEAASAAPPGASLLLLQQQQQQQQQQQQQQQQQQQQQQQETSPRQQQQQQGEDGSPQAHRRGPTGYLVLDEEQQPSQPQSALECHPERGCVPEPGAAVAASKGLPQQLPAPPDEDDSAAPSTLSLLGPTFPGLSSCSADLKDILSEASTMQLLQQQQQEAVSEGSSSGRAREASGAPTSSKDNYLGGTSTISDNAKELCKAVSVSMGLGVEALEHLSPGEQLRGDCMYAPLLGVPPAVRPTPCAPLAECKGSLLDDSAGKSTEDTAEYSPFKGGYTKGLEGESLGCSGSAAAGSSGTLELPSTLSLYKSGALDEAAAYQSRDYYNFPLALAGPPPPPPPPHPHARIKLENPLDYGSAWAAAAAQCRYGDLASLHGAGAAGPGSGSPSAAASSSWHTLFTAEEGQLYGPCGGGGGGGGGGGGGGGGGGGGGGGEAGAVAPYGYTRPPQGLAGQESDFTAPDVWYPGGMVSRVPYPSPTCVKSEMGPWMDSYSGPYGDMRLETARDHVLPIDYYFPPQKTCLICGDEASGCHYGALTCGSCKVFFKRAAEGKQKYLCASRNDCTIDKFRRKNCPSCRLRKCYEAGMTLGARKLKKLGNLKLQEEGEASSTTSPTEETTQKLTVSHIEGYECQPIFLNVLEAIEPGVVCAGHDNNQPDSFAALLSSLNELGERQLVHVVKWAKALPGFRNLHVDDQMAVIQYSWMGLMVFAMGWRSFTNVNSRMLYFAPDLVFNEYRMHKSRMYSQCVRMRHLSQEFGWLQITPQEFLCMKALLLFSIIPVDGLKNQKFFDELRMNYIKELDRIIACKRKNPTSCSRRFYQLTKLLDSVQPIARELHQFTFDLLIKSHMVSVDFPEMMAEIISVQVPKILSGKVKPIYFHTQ

The target in assay [1] is human androgen receptor (AR) (Homo sapiens, UniProt P10275). Description: C2C12 AR/ARE reporter assay. Conditions: for C2C12 % Efficacy: average of n trials; for EC50: read-out: C2C12 EC50, average of n trials. Type of assay: cell-based. (Reporter assays use an easily measured gene product as a stand-in for the process of interest.)
Assay [2] addresses human AR (androgen receptor) (Homo sapiens, UniProt P10275). Kind of assay: Steroid hormone nuclear receptor binding assay, AR binding. To be noted: read-out: AR binding Ki; average of n trials.

Broadly, the Ki is a measure of affinity in units of concentration, obtained from inhibition or displacement. `COc1cccc(Cn2c3c(c4cc(C)ccc42)CC(NC(=O)C(C)C)CC3)c1` (stereo not shown): the “C2C12 % Efficacy” value in assay [1] is reported as 71.6%. The inhibitory constant (Ki) in assay [2] worked out at 82.2 nM.
Usually EC50 stands for the concentration giving half of the maximal effect. On to `COc1ccccc1Cn1c2c(c3cc(C)ccc31)CC(NC(=O)C(C)C)CC2` (stereo not shown), for which, in assay [1], the “C2C12 % Efficacy” value is given as 63.6% and the EC50 is 941 nM. Further, the Ki in assay [2] was found to be 121 nM.
As for `CC(C)C(=O)NC1CCc2c(c3cc(Cl)ccc3n2Cc2ccccc2C#N)C1` (stereo not shown), in assay [1], the “C2C12 % Efficacy” value worked out at 43.2% and the EC50 was found to be 560 nM. For the same compound, the Ki in assay [2] amounted to 9.6 nM.
`O=C(NC1CCc2c(c3cc(Br)ccc3n2Cc2cccc(F)c2)C1)C(F)(F)F` (stereo not shown) [Example 174]: the “C2C12 % Efficacy” value in assay [1] is recorded as 13.8%. Besides, the Ki in assay [2] came to 29.7 nM.
